Measured values from publication PMC4620045 (Journal of pharmacokinetics and pharmacodynamics, 2015).

Test: Global PBPK model fitted to mouse plasma and tissue PK data
Format: in vivo
Conditions: mice, model estimate

In the case of `CC(C)C[C@H](NC(=O)[C@H](Cc1ccccc1)NC(=O)c1cnccn1)B(O)O` [Bortezomib], the “Permeability (PStc,ti)” value (Liver) is reported as 0.287 mL/min and the “Permeability (PStc,ti)” value (Muscle) is reported as 0.123 mL/min.
